Data on two compounds can be found in ChEMBL document CHEMBL3997796 (J Med Chem, 2017).

Amino acid sequences for entries named in this document (tags omitted). A change or cut given only in a name is not applied to a line headed by its entry.
UniProt Q92633: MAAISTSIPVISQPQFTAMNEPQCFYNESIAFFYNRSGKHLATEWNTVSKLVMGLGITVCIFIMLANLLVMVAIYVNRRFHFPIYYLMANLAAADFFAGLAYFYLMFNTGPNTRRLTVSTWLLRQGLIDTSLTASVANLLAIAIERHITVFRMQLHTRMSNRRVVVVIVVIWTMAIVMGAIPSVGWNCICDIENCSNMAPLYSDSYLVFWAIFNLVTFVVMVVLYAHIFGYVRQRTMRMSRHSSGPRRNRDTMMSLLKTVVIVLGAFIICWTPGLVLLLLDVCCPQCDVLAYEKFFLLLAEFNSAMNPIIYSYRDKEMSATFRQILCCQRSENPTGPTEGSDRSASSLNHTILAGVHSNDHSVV

The target of the assay is Lysophosphatidic acid receptor 1 (Homo sapiens, UniProt Q92633). The assay can be described thus: Antagonist activity at LPA1 receptor (unknown origin) expressed in rat RH7777 cells assessed as inhibition of LPA-induced intracellular calcium level up to 100 uM measured every 3.42 secs for 70 secs by Fura-2-AM dye based fluorescence assay relative to LPA. In kind it is functional, cell-based.

The structures appear in SMILES notation. Calls of active or inactive are those of the source. No cut-off for these calls is given here.

Turning to `O=C(Nc1cc(F)c(F)c(F)c1Br)c1cc(S(=O)(=O)N2CCOCC2)c(Cl)cc1Cl`, the Emax entry was “inactive”.

For the compound `O=S(=O)(c1cc(C(=S)Nc2cc(F)c(F)c(F)c2)c(Cl)cc1Cl)N1CCOCC1`, the Emax entry was “inactive”.
